What was measured:
[1] = Example 1
[2] = background; cited from earlier work

O=C(O)c1cn(C2CC2)c2cc(N3CCNCC3)c(F)cc2c1=O [ciprofloxacin]
pK2 (amine group) [1]: 8.8 | pK2 [2]: 8.8

Source: patent US8834930B2, “Pulmonary delivery of a fluoroquinolone” (Novartis AG, priority 2008, dated 2014)
